Tests used:
[1] = Clearance in Wistar rat at 10 mg/kg, iv measured after 4 hrs; assay type: ADME, organism-based; settings: in vivo
[2] = Clearance in Wistar rat at 10 mg/kg, po measured after 4 hrs; assay type: ADME, organism-based; settings: in vivo
in vivo = settings: male, beagle, dog, po, 3 mg/kg

Molecule COc1ccc2c(c1)C1CC1(C(=O)N1C3CCC1CN(C)C3)Cn1c-2c(C2CCCCC2)c2ccc(C(=O)NS(=O)(=O)N(C)C)cc21 (racemic) has a CL [1] of 20.6 mg/mL/kg and a CL [2] of 7.2 mg/mL/kg.

Molecule C=C[C@@H]1C[C@]1(NC(=O)[C@@H]1C[C@@H](Oc2ncc(OC)c3ccc(Cl)cc23)CN1C(=O)[C@@H](NC(=O)OC(C)(C)C)C(C)(C)C)C(=O)NS(=O)(=O)C1CC1 has a bioavailability (in vivo) of 61%.

From ChEMBL document CHEMBL5252531, “2015 Philip S. Portoghese Medicinal Chemistry Lectureship. Curing Hepatitis C Virus Infection with Direct-Acting Antiviral Agents: The Arc of a Medicinal Chemistry Triumph” (J Med Chem, 2016)
